Earlier results on 1 compound are cited in publication PMC10934121 (Molecules, 2024).

This data set relates to monoamine oxidase B. Conditions: cited from earlier work.

For the compound `O=C1N=c2ccccc2=C1O` [Isatin, 3-hydroxy-2H-indol-2-one], the “Inhibition of monoamine oxidase B” value was “potent inhibitor”.
